# Laboratory results published in paper PMC6628712 (Journal of enzyme inhibition and medicinal chemistry, 2016).
# Molecular target: T1, CYP26A1 (Homo sapiens, UniProt O43174)
# T1 sequence (O43174 1-497): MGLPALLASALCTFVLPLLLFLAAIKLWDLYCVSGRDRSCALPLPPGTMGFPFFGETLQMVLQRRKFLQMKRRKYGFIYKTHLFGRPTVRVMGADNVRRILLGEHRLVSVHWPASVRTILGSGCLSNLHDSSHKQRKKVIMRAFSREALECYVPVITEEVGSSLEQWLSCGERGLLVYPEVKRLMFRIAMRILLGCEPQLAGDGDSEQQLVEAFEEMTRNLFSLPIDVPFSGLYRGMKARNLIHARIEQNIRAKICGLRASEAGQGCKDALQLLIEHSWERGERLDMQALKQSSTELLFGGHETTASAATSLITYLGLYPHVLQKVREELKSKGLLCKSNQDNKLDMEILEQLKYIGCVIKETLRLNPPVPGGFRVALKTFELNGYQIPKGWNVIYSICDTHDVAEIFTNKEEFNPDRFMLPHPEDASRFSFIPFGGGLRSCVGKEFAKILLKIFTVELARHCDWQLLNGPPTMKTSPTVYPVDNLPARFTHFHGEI
# Assay: Inhibition of CYP26A1-catalyzed tazarotenic acid sulfoxide formation
# Assay type: biochemical
# Details: read-out: CYP26A1 IC50, tazarotenic acid; recombinant CYP26A1; probe tazarotenic acid sulfoxide formation; ± standard error
structure (smiles),measurement,value
Clc1cccc(C(c2ccc3[nH]cnc3c2)n2ccnc2)c1 (stereo not shown) [Liarazole],IC50,840 ± 870 nM
